The source of these data is ChEMBL document CHEMBL1949590, “Discovery of a novel class of orally active trypanocidal N-myristoyltransferase inhibitors” (J Med Chem, 2012).

The subject of this data set is Mus musculus. The data set is described as follows: Oral bioavailability in NMRI mouse at 10 mg/kg. The data set is classed as ADME, organism-based. The following applies: in vivo.

In the case of `Cc1nn(C)c(C)c1NS(=O)(=O)c1c(Cl)cc(-c2ccnc(N3CCNCC3)c2)cc1Cl`, the F was 19%.
